Test results reported in BindingDB's records for 25268943.

The chains behind the UniProt entries cited, without tags or fusion partners. Where a name states a change or a piece, a line headed by the entry shows the natural chain unless it says otherwise.
UniProt P35372, whole entry, looked up: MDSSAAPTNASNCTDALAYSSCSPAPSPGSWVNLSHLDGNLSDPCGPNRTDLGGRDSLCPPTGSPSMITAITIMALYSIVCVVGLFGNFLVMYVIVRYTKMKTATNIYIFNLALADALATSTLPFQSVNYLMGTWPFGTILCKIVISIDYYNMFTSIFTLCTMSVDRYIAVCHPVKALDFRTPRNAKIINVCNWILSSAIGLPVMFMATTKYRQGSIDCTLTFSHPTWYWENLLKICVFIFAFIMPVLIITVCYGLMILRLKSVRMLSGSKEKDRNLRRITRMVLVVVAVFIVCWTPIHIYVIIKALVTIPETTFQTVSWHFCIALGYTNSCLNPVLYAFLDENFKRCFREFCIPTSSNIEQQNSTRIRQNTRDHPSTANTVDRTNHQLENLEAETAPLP
UniProt P41145: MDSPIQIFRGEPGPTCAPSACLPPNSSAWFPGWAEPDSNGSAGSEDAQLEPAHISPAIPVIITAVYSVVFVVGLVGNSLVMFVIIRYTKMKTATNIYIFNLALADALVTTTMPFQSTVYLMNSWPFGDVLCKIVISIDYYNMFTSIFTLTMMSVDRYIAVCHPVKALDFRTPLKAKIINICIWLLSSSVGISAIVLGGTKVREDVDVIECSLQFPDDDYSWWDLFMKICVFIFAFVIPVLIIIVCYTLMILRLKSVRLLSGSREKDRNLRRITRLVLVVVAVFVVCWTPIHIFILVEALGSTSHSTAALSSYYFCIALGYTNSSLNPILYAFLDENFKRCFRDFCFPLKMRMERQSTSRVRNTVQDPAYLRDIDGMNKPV
UniProt P41143, whole entry, looked up: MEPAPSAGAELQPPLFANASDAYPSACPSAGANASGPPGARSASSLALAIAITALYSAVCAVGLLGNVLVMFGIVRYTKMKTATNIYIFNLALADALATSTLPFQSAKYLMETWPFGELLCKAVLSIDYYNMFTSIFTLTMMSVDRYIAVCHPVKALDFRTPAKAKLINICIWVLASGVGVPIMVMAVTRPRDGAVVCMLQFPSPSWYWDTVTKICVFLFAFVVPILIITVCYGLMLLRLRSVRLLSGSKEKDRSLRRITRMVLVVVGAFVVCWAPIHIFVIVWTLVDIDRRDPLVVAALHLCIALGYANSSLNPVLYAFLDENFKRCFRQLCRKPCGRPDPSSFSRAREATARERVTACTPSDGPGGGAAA

How the values were obtained:
Mu-type opioid receptor = Mu-type opioid receptor (Homo sapiens, UniProt P35372); test: Displacement of [3H]DAMGO from human MOR expressed in HEK293 cells after 60 mins by scintillation counting analysis
[1] = biological target: Kappa-type opioid receptor (Homo sapiens, UniProt P41145); test: Displacement of [3H]U-69593 from human KOR expressed in HEK293 cells after 60 mins by scintillation counting analysis
[2] = biological target: Delta-type opioid receptor (Homo sapiens, UniProt P41143)

Structure (SMILES) | Ki (Mu-type opioid receptor) [µM] | Ki [1] [nM] | Ki [2] [µM]
N=C(N)NCC(=O)NCC1(Cc2cccc3ccccc23)CCN(Cc2ccccc2)CC1 | > 5 | 1470 | –
N=C(N)NCC(=O)NCC1(Cc2ccccc2)CCN(Cc2ccccc2)CC1 | > 5 | 4250 | > 5
